Test results: patent US12233227B2, “Systems and methods of depositing drug into tissue through serrations” (CAGENT VASCULAR, INC., priority 2016, dated 2025)

Experiment: Drug retention in the tissue wall of porcine vessels: Serranator or POBA pretreatment followed by drug coated balloon (DCB)
Conditions: for amount of paclitaxel (PTX) drug retained in the tissue wall: inflation 1.2 times the reference vessel diameter (FIG. 28A)

## CC(=O)O[C@H]1C(=O)[C@@]2(C)[C@H]([C@H](OC(=O)c3ccccc3)[C@]3(O)C[C@H](OC(=O)[C@H](O)[C@@H](NC(=O)c4ccccc4)c4ccccc4)C(C)=C1C3(C)C)[C@]1(OC(C)=O)CO[C@@H]1C[C@@H]2O [paclitaxel]
7 days post POBA followed by DCB (FIG. 28B)
  amount of PTX drug retained in the tissue wall: 178.7 µg/mg
7 days post POBA followed by DCB
  amount of paclitaxel (PTX) drug retained in the tissue wall: 181.8 µg/mg
7 days post Serranator followed by DCB (FIG. 28B)
  amount of PTX drug retained in the tissue wall: 479.2 µg/mg
7 days post Serranator followed by DCB
  amount of paclitaxel (PTX) drug retained in the tissue wall: 263.5 µg/mg
